Reference: US5747535A, “Selective thrombin inhibitors” (priority 1995, dated 1998)

Test system: trypsin/thrombin
Conditions: for Selectivity (trypsin/thrombin): Table 1
Method: To identify the selectivity for thrombin over trypsin of the compound of the present invention, the inhibitory activity for trypsin of the compound of formula (I) is measured as Ki value according to the same method as the above method for determination of thrombin inhibitory activity, and then the ratio of the activity for trypsin to the activity for thrombin is calculated. In this case, the procedure for determination of inhibitory activity for trypsin is substantially identical to that for thrombin, except that N-benzoyl-Val-Gly-Arg para-nitroanilide hydrochloride is used as the substrate.

SMILES | selectivity for thrombin against trypsin [times] | Selectivity (trypsin/thrombin)
CNC(=N)c1ccc(C[C@H](NS(=O)(=O)c2ccc3ccccc3c2)C(=O)N(C)C2CCCC2)cc1 [Example 7, (S)-N-cyclopentyl-N-methyl-3-[4-(methylamidino)phenyl]-2-(2-naphthylsulfonylamino)propionamide] | ~26304 | 26304
COc1cccc2c(S(=O)(=O)N[C@@H](Cc3ccc(C(=N)NN)cc3)C(=O)N(C)C3CCCC3)cccc12 [Example 19, (S)-3-[4-(amidrazono)-phenyl]-N-cyclopentyl-N-methyl-2-(5-methoxy-naphthalene-1-sulfonylamino)-propionamide] | – | 990
COc1cc2ccc(S(=O)(=O)N[C@@H](Cc3ccc(C(=N)NN)cc3)C(=O)N(C)C3CCCC3)cc2cc1OC [Example 20, (S)-3-[4-(amidrazono)-phenyl]-N-cyclopentyl-N-methyl-2-(6,7-dimethoxy-naphthalene-2-sulfonylamino)-propionamide] | – | 106
CN(C(=O)[C@H](Cc1ccc(C(=N)NN)cc1)NC(=O)COc1cccc2ccccc12)C1CCCC1 [Example 23, (S)-3-[4-(amidrazono)-phenyl]-N-cyclopentyl-N-methyl-2-[2-(naphthalen-1-yl-oxy)acetylamino]-propionamide] | – | 8
